# Reference: patent US6664286B1, “Serotonergic 5ht2 agonists for treating glaucoma” (Alcon Manufacturing, Ltd., priority 1998, dated 2003)
# Amino acid sequences for entries named in this document (tags omitted).
# UniProt P14842, whole entry: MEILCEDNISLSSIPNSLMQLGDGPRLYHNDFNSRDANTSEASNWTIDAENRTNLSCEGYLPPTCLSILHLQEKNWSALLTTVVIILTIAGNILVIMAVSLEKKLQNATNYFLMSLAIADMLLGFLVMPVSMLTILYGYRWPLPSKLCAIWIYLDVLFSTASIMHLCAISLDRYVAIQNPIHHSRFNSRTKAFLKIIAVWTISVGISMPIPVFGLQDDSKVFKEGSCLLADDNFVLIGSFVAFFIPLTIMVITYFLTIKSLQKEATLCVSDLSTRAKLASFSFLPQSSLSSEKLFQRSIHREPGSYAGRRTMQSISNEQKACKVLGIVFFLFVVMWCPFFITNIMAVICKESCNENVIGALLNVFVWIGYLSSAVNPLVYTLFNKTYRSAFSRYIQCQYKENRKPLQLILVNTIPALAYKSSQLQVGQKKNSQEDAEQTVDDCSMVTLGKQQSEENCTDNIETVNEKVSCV
# Target: 5HT2 receptor (Rattus norvegicus, UniProt P14842)
# Experiment: cell-based
# Details: A7R5, read-out: Efficacy (Emax, %)
# Description: Confluent cells are exposed for 24-30 hrs to 1.5 μCi [^3H]-myo-inositol (18.3 Ci/mmol) in 0.5 ml of serum-free medium. Cells are then rinsed once with DMEM/F-12 containing 10 mM LiCl prior to incubation with the test agent (or solvent as the control) in 1.0 ml of the same medium for 1 hr at 37° C., after which the medium is aspirated and 1 ml of cold 0.1 M formic acid added to stop the reaction. […] The eluate (4 ml) is collected, mixed with 15 ml scintillation fluid, and the total [^3H]-IPs determined by scintillation counting on a beta-counter.
structure (smiles),measurement,value
"COc1cc(C[C@@H](C)N)c(OC)cc1I [(R)-DOI, (R)4-iodo-2,5 dimethoxy-α-methyl-benzeneethanamine]",Emax,82%
